Results reported in ChEMBL document CHEMBL3808308, “Synergistic potentiation of (-)-lomaiviticin A cytotoxicity by the ATR inhibitor VE-821” (Bioorg Med Chem Lett, 2016).

System: K562
Test: Potentiation of 2.5x10'-5 uM (-)-lomaiviticin A-induced cytotoxicity against human K562 cells assessed as fraction ratio affected at 5 uM after 24 hrs by cell titer-glo luminescence assay
Assay type: functional

O=C(c1cc(Cc2n[nH]c(=O)c3ccccc23)ccc1F)N1CCN(C(=O)C2CC2)CC1 [OLAPARIB]
Ratio: 4.75 ×10⁻⁴ No_unit
